Patent publication US10233186B2, “Inhibitors of activin receptor-like kinase” (BLUEPRINT MEDICINES CORPORATION, priority 2016, dated 2019)

The chains behind the UniProt entries cited, without tags or fusion partners. Residues count along the entry.
UniProt Q04771, 21-509 R206H limits assumed: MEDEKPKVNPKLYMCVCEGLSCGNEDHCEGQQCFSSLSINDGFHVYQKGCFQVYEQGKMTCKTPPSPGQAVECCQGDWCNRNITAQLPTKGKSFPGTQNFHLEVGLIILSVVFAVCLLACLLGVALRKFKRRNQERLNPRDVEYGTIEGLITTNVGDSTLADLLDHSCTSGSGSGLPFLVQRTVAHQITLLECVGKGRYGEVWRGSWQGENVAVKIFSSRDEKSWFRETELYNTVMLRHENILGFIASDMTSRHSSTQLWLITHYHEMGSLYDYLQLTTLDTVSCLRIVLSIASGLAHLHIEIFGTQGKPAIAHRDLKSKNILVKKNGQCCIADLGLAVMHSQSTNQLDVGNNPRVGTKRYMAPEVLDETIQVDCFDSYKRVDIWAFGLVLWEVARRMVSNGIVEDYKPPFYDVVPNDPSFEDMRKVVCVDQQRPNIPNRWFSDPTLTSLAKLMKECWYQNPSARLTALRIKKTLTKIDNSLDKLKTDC

Experiments:
[1] = molecular target: ALK2 R206H (GST-tagged mutant ALK2) (Homo sapiens, UniProt Q04771, R206H); test: ALK binding assay (LANTHASCREEN TR-FRET competitive binding, displacement of Kinase Tracer 178); conditions: read-out: Binding Assay (IC50)
human ALK2 R206H = human ALK2 R206H (Homo sapiens, UniProt Q04771, R206H); test: Cell-based ALK2-R206H cell activity assay (Smad1-Ser463/Ser465 phosphorylation by AlphaLISA in HEK293-ALK2-R206H cells); conditions: read-out: Cell Line (Cell Assay IC50)

SMILES	IC50 [1] [nM]	IC50 (human ALK2 R206H) [nM]
O=C(C1CC1)N1CCN(c2ccnn3cc(-c4ccc(C56CCN(CC5)C6)cc4)cc23)CC1	< 10	100 to 500
O=C(OC(CO)CO)N1CCN(c2ccnn3cc(-c4ccc([C@@H]5CCCNC5)cc4)cc23)CC1	< 10	> 500
CO[C@]1(c2ccc(-c3cc4c(N5CCN(C(=O)OC6COC6)CC5)ccnn4c3)nc2)CCCN(C(C)C)C1	< 10	< 100
O=C(C1CC1)N1CCN(c2ccnn3cc(-c4ccc([C@@H]5CCCN5)nc4)cc23)CC1	< 10	100 to 500
CC(C)N1CCC(c2ccc(-c3cc4c(N5CCN(C(=O)NCCF)CC5)ccnn4c3)cc2)CC1	< 10	
CC(C)N1CC[C@H](c2ccc(-c3cc4c(N5CCN(C(=O)[C@H]6C[C@@H]6C#N)CC5)ccnn4c3)cc2)C1	< 10	< 100
COC(=O)C1(c2ccc(-c3cc4c(N5CCN(C(=O)OC6COC6)CC5)ccnn4c3)cc2)CCNCC1	< 10	100 to 500
